{"source": "IntAct's records for PubMed 35512704", "parents": {"B1": {"name": "RAC-alpha serine/threonine-protein kinase (Homo sapiens), P31749 (parent)", "chain": "MSDVAIVKEGWLHKRGEYIKTWRPRYFLLKNDGTFIGYKERPQDVDQREAPLNNFSVAQCQLMKTERPRPNTFIIRCLQWTTVIERTFHVETPEEREEWTTAIQTVADGLKKQEEEEMDFRSGSPSDNSGAEEMEVSLAKPKHRVTMNEFEYLKLLGKGTFGKVILVKEKATGRYYAMKILKKEVIVAKDEVAHTLTENRVLQNSRHPFLTALKYSFQTHDRLCFVMEYANGGELFFHLSRERVFSEDRARFYGAEIVSALDYLHSEKNVVYRDLKLENLMLDKDGHIKITDFGLCKEGIKDGATMKTFCGTPEYLAPEVLEDNDYGRAVDWWGLGVVMYEMMCGRLPFYNQDHEKLFELILMEEIRFPRTLGPEAKSLLSGLLKKDPKQRLGGGSEDAKEIMQHRFFAGIVWQHVYEKKLSPPFKPQVTSETDTRYFDEEFTAQMITITPPDQDDSMECVDSERRPHFPQFSYSASGTA", "partner": "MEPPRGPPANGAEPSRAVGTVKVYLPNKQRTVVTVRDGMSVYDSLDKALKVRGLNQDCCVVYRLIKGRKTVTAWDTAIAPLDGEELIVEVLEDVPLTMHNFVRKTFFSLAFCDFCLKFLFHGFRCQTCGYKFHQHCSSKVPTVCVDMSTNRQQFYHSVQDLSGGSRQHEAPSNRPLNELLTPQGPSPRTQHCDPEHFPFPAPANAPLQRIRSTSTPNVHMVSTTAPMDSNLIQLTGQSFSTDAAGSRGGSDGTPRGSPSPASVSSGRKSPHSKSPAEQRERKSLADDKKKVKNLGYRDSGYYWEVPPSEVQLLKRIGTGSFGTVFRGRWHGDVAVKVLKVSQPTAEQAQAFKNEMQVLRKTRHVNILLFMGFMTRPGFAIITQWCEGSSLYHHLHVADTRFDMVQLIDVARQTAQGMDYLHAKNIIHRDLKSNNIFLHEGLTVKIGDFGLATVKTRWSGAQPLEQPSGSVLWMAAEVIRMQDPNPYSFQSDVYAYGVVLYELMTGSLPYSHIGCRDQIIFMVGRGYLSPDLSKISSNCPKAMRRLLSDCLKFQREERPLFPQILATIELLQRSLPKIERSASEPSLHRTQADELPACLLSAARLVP"}, "B2": {"name": "RAC-alpha serine/threonine-protein kinase (Homo sapiens), P31749 (parent)", "chain": "B1 chain", "partner": "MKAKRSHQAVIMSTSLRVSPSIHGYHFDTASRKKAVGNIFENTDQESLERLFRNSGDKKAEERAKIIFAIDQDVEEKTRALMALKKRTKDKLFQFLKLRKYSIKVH"}, "B3": {"name": "RAC-alpha serine/threonine-protein kinase (Homo sapiens), P31749 (parent)", "chain": "B1 chain", "partner": "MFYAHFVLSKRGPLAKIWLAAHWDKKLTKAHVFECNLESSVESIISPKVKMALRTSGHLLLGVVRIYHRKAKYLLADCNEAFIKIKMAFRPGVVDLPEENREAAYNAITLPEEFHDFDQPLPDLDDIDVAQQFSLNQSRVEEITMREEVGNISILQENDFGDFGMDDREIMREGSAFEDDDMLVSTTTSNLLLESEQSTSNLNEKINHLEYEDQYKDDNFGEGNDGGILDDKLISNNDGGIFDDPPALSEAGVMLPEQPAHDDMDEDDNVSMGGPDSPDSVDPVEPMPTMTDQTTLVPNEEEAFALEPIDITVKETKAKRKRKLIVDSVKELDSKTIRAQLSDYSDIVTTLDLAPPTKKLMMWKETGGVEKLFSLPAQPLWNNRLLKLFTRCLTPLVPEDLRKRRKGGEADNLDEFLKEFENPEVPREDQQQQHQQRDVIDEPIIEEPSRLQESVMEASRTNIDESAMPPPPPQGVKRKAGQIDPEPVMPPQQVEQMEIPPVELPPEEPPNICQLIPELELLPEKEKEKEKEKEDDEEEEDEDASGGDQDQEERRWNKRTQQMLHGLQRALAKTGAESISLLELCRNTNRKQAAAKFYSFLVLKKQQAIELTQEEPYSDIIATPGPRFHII"}, "B4": {"name": "RAC-alpha serine/threonine-protein kinase (Homo sapiens), P31749 (parent)", "chain": "B1 chain", "partner": "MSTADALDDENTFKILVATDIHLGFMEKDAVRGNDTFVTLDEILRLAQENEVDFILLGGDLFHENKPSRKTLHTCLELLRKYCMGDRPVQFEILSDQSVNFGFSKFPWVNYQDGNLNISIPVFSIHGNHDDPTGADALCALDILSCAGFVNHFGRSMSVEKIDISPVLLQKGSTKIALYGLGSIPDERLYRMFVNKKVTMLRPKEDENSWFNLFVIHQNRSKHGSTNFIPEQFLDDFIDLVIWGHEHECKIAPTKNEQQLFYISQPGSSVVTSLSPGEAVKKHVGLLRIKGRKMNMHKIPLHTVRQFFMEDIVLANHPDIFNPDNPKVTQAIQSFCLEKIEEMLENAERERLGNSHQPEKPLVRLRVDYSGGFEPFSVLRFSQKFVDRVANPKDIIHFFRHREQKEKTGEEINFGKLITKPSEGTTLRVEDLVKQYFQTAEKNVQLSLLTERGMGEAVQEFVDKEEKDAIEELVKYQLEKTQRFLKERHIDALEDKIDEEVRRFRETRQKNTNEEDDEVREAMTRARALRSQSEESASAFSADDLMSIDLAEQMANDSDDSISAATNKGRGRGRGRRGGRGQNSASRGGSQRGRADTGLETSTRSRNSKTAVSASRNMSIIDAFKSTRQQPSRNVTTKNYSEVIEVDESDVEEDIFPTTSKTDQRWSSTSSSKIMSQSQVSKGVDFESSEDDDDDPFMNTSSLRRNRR"}, "B5": {"name": "RAC-alpha serine/threonine-protein kinase (Homo sapiens), P31749 (parent)", "chain": "B1 chain", "partner": "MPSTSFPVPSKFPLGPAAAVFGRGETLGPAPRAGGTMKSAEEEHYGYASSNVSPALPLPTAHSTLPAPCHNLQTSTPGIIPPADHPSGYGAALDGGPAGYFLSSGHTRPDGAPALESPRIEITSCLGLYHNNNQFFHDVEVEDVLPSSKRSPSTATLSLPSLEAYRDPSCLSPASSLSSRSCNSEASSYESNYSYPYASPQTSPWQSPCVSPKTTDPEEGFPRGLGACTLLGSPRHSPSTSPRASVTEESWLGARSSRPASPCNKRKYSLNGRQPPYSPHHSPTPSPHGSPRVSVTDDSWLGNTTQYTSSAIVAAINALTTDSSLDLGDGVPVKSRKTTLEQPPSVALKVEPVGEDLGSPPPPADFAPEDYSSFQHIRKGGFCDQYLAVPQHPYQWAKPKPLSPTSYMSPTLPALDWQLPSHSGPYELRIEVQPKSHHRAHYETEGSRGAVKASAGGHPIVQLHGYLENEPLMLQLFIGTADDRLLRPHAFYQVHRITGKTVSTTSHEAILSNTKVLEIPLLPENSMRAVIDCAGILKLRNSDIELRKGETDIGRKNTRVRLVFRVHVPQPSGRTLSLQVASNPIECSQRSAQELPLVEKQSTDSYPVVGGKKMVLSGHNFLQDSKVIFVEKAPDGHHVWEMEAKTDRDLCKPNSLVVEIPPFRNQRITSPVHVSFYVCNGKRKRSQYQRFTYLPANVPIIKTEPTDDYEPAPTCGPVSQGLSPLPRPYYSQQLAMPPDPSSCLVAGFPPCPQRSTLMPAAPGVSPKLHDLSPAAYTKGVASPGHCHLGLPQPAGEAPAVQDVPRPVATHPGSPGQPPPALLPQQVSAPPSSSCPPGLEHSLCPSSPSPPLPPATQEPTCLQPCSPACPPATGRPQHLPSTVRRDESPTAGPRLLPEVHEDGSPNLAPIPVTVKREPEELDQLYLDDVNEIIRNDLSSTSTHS"}, "B6": {"name": "RAC-alpha serine/threonine-protein kinase (Homo sapiens), P31749 (parent)", "chain": "B1 chain", "partner": "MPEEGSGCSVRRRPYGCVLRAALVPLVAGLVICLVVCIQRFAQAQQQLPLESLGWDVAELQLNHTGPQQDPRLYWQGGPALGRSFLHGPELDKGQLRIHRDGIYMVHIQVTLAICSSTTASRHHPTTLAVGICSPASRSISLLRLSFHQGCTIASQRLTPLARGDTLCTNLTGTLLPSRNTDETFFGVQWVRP"}, "B7": {"name": "RAC-alpha serine/threonine-protein kinase (Homo sapiens), P31749 (parent)", "chain": "B1 chain", "partner": "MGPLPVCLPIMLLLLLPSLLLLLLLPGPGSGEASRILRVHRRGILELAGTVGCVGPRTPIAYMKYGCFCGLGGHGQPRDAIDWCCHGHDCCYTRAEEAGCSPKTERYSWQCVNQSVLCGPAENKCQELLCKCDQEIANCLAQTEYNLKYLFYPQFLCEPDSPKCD"}, "B8": {"name": "RAC-alpha serine/threonine-protein kinase (Homo sapiens), P31749 (parent)", "chain": "B1 chain", "partner": "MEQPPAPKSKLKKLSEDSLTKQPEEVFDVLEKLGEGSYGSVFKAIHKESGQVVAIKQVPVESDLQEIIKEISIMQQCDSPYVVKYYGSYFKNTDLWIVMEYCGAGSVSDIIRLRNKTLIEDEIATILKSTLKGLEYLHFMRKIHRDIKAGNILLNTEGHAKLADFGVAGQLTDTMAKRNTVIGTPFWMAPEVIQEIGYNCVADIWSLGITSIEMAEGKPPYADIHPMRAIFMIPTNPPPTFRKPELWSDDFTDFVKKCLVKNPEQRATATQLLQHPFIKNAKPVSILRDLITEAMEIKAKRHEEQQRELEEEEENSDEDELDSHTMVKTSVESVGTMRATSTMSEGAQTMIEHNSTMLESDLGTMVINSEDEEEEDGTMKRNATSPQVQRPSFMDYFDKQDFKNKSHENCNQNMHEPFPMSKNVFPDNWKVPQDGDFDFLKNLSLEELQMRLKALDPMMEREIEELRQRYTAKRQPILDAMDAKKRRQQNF"}, "B9": {"name": "RAC-alpha serine/threonine-protein kinase (Homo sapiens), P31749 (parent)", "chain": "B1 chain", "partner": "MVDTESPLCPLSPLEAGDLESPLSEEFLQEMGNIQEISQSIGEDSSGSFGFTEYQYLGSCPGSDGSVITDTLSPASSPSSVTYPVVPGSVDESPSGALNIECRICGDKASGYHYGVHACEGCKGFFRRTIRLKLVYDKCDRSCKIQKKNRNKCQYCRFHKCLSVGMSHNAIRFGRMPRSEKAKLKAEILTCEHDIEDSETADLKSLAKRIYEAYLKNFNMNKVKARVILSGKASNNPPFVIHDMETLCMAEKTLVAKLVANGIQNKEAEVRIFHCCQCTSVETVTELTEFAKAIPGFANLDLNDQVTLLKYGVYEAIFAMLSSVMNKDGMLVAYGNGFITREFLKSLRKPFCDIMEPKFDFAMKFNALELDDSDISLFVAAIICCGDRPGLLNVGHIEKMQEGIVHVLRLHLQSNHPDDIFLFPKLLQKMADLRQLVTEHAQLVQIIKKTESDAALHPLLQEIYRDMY"}, "B10": {"name": "RAC-alpha serine/threonine-protein kinase (Homo sapiens), P31749 (parent)", "chain": "B1 chain", "partner": "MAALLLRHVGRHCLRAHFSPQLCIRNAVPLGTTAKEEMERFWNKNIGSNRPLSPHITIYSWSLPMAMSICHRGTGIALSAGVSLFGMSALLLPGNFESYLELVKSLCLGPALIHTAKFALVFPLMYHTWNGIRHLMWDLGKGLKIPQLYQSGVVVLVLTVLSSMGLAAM"}}, "data": [{"variants_of": "B1", "conditions": "with araf_human ARAF", "values": [{"variant": "E17K", "effect of a mutation on the interaction": "with no effect"}]}, {"variants_of": "B2", "conditions": "with tcim_human TCIM", "values": [{"variant": "E17K", "effect of a mutation on the interaction": "causing an interaction"}]}, {"variants_of": "B3", "conditions": "with rad21_human RAD21, O60216", "values": [{"variant": "E17K", "effect of a mutation on the interaction": "with no effect"}]}, {"variants_of": "B4", "conditions": "with mre11_human MRE11, P49959", "values": [{"variant": "E17K", "effect of a mutation on the interaction": "causing an interaction"}]}, {"variants_of": "B5", "conditions": "with nfac1_human NFATC1, O95644", "values": [{"variant": "E17K", "effect of a mutation on the interaction": "with no effect"}]}, {"variants_of": "B6", "conditions": "with cd70_human CD70, P32970", "values": [{"variant": "E17K", "effect of a mutation on the interaction": "causing an interaction"}]}, {"variants_of": "B6", "conditions": "with cd70_human CD70, P32970", "remark": "another data set of the same source", "values": [{"variant": "E17K", "effect of a mutation on the interaction": "increasing interaction strength"}]}, {"variants_of": "B7", "conditions": "with pa2gx_human PLA2G10, O15496", "values": [{"variant": "E17K", "effect of a mutation on the interaction": "with no effect"}]}, {"variants_of": "B8", "conditions": "with stk3_human STK3, Q13188", "values": [{"variant": "E17K", "effect of a mutation on the interaction": "with no effect"}]}, {"variants_of": "B9", "conditions": "with ppara_human PPARA", "values": [{"variant": "E17K", "effect of a mutation on the interaction": "causing an interaction"}]}, {"variants_of": "B10", "conditions": "with c560_human SDHC", "values": [{"variant": "E17K", "effect of a mutation on the interaction": "with no effect"}]}]}
